Measured affinities in a library of Ab-14 light chain variants

Data: MIT Lincoln Laboratory AlphaSeq set, Li et al. 2023, doi:10.1038/s41467-023-39022-2, as distributed in FLAb.

Target: peptide PDVDLGDISGINAS, taken from heptad repeat 2 (HR2) of SARS-CoV-2 spike.

Parent scFv Ab-14: VH joined to VL by a 15-residue (Gly4Ser)3 linker. Changes lie in the light chain CDRs alone.
VH: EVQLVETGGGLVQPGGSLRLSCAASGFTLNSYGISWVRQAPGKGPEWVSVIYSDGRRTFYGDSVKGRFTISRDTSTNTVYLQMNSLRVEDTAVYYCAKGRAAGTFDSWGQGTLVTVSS
VL: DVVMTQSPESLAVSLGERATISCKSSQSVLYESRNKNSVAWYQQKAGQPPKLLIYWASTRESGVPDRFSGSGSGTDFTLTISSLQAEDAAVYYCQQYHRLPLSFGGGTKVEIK

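The parent was found by panning a naive human phage display library on the peptide. Designed CDR sequences, proposed from the first random library and measured here. Their group label is 14L_GP_HC (GP: Gaussian process model; HC: hill climbing; a sequence that several methods proposed may carry one label only). Affinity was read by AlphaSeq, a pooled yeast mating assay with surface-displayed partners. Pairs that bind mate more often; barcode pairs of the diploids are counted by sequencing. A regression on co-assayed BCL2-family reference pairs converts the normalised counts of each replicate to an apparent Kd. The assay was run in six technical replicates.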

Positions count from residue 1 of the parent VL; K24H puts H in place of K. Scale: log10 of Kd in nM, estimated from mating counts; low values are strong binders. "n.d." marks a missing value. The strain was present, yet no cells mated with the target were sequenced in that replicate, which points to weak or no binding. A sequence measured in both rounds can read differently, since the two assays cover different ranges. Of ten entries with the parent sequence, four were seen in most replicates (averages 0.34 to 2.37), three in one and three in none, so single entries are noisy. The authors' rule: three or more of the six replicates give a measured affinity, fewer mean a poor binder. Nonspecific signal, from three strains lacking the peptide, appeared in 4% of pairings of all light chain designs, centred on 2.64 (5% of these signals below 1.59); values are not corrected for it. Also given: how often the same scFv was detected with the empty control strains, with their mean in brackets.

changes | replicates, log10 nM | control signals
K24H/S25L/Q27W/S28G/W56N | -0.22 -0.28 -0.56 -0.45 -0.55 -0.21 | 2/18 (3.25)
K24H/Q27P/L30E/W56N/T59Q/E61I | 0.06 -0.15 -0.15 -0.12 -0.03 0.04 | 2/18 (2.56)
V29W/W56G/T59M/S62V | -0.11 -0.29 -0.29 -0.33 -0.52 -0.29 | 0/18
S28V/V29H/W56G | 1.28 1.16 1.61 1.45 1.81 1.53 | 2/18 (3.48)
S25I/Q27I/V29Y/K36H/W56E/S62Q | 0.35 0.57 0.60 0.28 0.37 0.44 | 0/18
K24I/Y31M/W56D | -0.03 -0.01 -0.11 -0.29 0.07 0.24 | 1/18 (2.09)
S25L/Q27K/Y31F/W56N/S103R | 0.19 -0.03 -0.14 -0.12 -0.01 0.17 | 1/18 (3.20)
S26Y/Y31L/K36F/W56H/S62D | 0.43 0.49 0.18 0.28 0.41 0.12 | 1/18 (2.30)
S25L/S26E/V29T | 1.16 0.20 -0.07 0.39 0.35 0.44 | 0/18
S25L/V29I/R34V/W56H | 0.24 0.09 0.14 0.12 0.04 0.30 | 5/18 (3.76)
S26L/Q27I/V29W/W56H/S62Q | n.d. 1.82 1.17 1.44 n.d. 1.25 | 1/18 (2.01)
Q27I/V29L/W56E/S103M | 0.36 0.44 0.39 0.20 0.35 0.37 | 0/18
S25F/Q27P/N35H/W56N | 0.15 -0.14 0.17 -0.07 0.42 0.50 | 0/18
Q27I/V29Y/R34M/K36P/W56N/A57G | 0.09 -0.39 -0.33 -0.43 -0.03 0.14 | 2/18 (2.50)
K24D/V29H/W56G | 0.74 0.23 -0.05 -0.53 -0.22 -0.22 | 0/18
S25V/N35M/W56D/E61C/S103L | 0.29 0.12 0.13 0.35 0.20 0.47 | 0/18
S25V/S26L/L30K/S33G/W56H/S62D | 0.60 0.33 0.50 0.51 0.44 0.58 | 0/18
S26Y/Q27I/V29Q/W56E | -0.23 -0.18 -0.62 -0.47 -0.46 -0.31 | 0/18
V29T/R34G/W56H | 0.51 0.23 0.43 0.08 0.31 0.26 | 0/18
K24H/Q27P/S38N/W56G | -0.02 -0.46 -0.27 -0.31 -0.20 -0.23 | 0/18
K24H/Q27P/W56N/S103M | n.d. n.d. n.d. n.d. n.d. n.d. | 0/18
S25L/S26W/Q27M/V29T/W56N | -0.21 -0.08 0.13 0.07 -0.10 0.32 | 2/18 (2.35)
Q27I/V29Y/S38N/W56A | 0.65 0.76 0.33 -0.01 0.16 0.08 | 0/18
V29W/W56G/T59Q/S62N | 0.73 0.60 n.d. 0.61 0.52 0.99 | 1/18 (1.02)
S25L/S26T/W56H/S62D | -0.03 -0.07 -0.11 -0.25 -0.11 -0.12 | 2/18 (2.98)
K24H/Q27G/W56N/S103Q | 1.25 1.88 0.27 0.44 1.11 1.37 | 0/18
K24H/S25F/Q27P/S38N/W56N | 0.48 0.53 0.04 0.08 0.22 0.22 | 2/18 (3.18)
Q27I/V29Y/R34V/W56A | 1.09 0.56 0.34 0.39 0.50 0.79 | 1/18 (2.91)
S25Q/Q27I/V29D/Y31M/W56D | 0.31 0.28 0.49 0.06 0.16 0.58 | 0/18
S25L/S26R/V29T/K36T/W56E | -0.02 0.20 -0.31 -0.09 -0.15 0.08 | 1/18 (1.62)
S25L/S26R/V29T/K36Q/W56M | 1.03 1.45 1.67 0.78 1.24 1.87 | 0/18
S25L/Q27M/Y31F/W56N/S62Q | -0.02 0.15 -0.15 -0.48 -0.19 0.02 | 0/18
S25I/V29W/S38P/W56G/T59F | n.d. 1.21 2.73 1.11 1.05 1.34 | 0/18
S25L/Q27P/N35T/W56N | 0.51 0.57 0.46 0.69 0.35 0.73 | 0/18
S25V/R34G/N35T/W56N/T59Y | 0.58 0.16 0.32 0.17 0.47 0.41 | 3/18 (2.55)

Top 5 of the variants detected in all replicates, tightest first:

changes	replicates, log10 nM	control signals
S26Y/Q27I/V29Q/W56E	-0.23 -0.18 -0.62 -0.47 -0.46 -0.31	0/18
K24H/S25L/Q27W/S28G/W56N	-0.22 -0.28 -0.56 -0.45 -0.55 -0.21	2/18 (3.25)
V29W/W56G/T59M/S62V	-0.11 -0.29 -0.29 -0.33 -0.52 -0.29	0/18
K24H/Q27P/S38N/W56G	-0.02 -0.46 -0.27 -0.31 -0.20 -0.23	0/18
Q27I/V29Y/R34M/K36P/W56N/A57G	0.09 -0.39 -0.33 -0.43 -0.03 0.14	2/18 (2.50)